miR-21 reporter: miR-21 reporter, rising signal; HeLa miR-21 FLuc reporter, luciferase, 48 h; Potency, µM (doses to about 38.3 µM), for inactives: at the highest dose reporter change, positive = more light; 340,000 tested, under 10 active; AID 2288; active = well fitted rising curve with a large enough effect; inconclusive = small, poorly fitted or top-dose-only effect; inactive = no such curve, though single readings can be large or run the other way;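 further: % of control where 0% means no effect; miR-21 action dims this reporter so a rising signal means less miR-21 action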
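Compounds were titrated across several concentrations (up to approximately 40 uM) and incubated 48 hours with HeLa miR-21-FLuc reporter cells (miR-21 target sequence downstream of FLuc, endogenous miR-21). Readout was firefly luciferase luminescence after lytic detection reagent.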
A549 viability: A549 cytotoxicity, counter-screen for Nrf2 inhibitors | A549 ARE-Fluc cells, CellTiter-Fluor viability, 18-24 h | Potency, µM (titrated, usually from 46 µM), without a hit: top-dose activity change, negative = cytotoxicity, hits mostly inhibitors | actives 0.16% (n = 390,000) | AID 504648; also: potency is read from the fitted curve at half-maximal effect; % is scaled to controls: 0 for no effect and ±100 for the full control effect
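A549 ARE_Fluc cells in 5% FBS OPTI-MEM were exposed to compounds in concentration-response for 18-24 h at 37 deg C. Viability was read by CellTiter-Fluor fluorescence (Ex 405/Em 525) after 30 min, before the luciferase read.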
Mito fusion act: inhibitors of mitochondrial division or activators of mitochondrial fusion | AID 485298 | Potency, µM (highest dose often 46.1 µM), without a hit: top-dose growth rescue (activation), actives largely listed as activators | actives 0.23% (n = 320,000) | S. cerevisiae fusion-defective mutant growth rescue, CellTiterGlo 48 h; also: potency is read from the fitted curve at half-maximal effect; % of control where 0% means no effect; nearly all actives have a fitted effect of over 45% in size
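Growth-rescue viability read-out: after 48 h at the non-permissive 37C in glycerol/ethanol YPEG, yeast mitochondrial fusion mutants are measured by CellTiterGlo luminescence; compounds (23 nl pinned per well) restoring growth score as division inhibitors or fusion activators.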
Nrf2 inh: inhibitors of Nrf2 signaling; A549 ARE-Fluc reporter, luciferase luminescence, 18-24 h; Potency, µM (doses to about 46 µM), for the others: top-dose activity change, negative = inhibition, hits mostly inhibitors; actives 2.1% (n = 360,000); also: potency is read from the fitted curve at half-maximal effect; % is scaled to controls: 0 for no effect and ±100 for the full control effect; nearly all actives have a fitted effect of over 60% in size
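A549 ARE_Fluc cells, 5000/well, 5% FBS OPTI-MEM; compounds in dose-response, 18-24 h at 37 °C/5% CO2; CellTiter-Fluor viability read (Ex 405/Em 525), then BugLite luciferase luminescence = Nrf2 activity.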
Nrf2 ARE act: activators of Nrf2 (ARE) signaling; AREc32 ARE-luciferase reporter (MCF7-derived line), luminescence, 24 h; Potency, µM (series often up to 46.1 µM), inactives show top-dose activation, hits mostly activators; actives 0.31% (n = 410,000); AID 624171; also: potency is read from the fitted curve at half-maximal effect; % of control where 0% means no effect; nearly all actives have a fitted effect of over 65% in size
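AREc32 cells carrying an ARE-driven firefly luciferase, 1000 cells/well in OPTI-MEM with 5% FBS, dosed after overnight attachment and incubated 24 hr at 37 deg C. Steady-Glo luminescence read after 30 min at RT.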
* hit, by the source's call; ? = inconclusive; · = not tested or not shown; [ ] = dose if it differs, or a comment. Rows were chosen to be rich in hits. Some 2.3% of all compounds tested hit in one or more screens of this group. Unless noted, calls follow the shape of the dose curve; as a rule, active = well fitted curve in the direction sought with a large enough effect; inconclusive = small, poorly fitted or top-dose-only effect, or another doubt; inactive = no such curve, though single readings can be large; an effect the other way counts as inactive or inconclusive.

Values run as follows: miR-21 reporter	A549 viability	Mito fusion act	Nrf2 inh	Nrf2 ARE act
(1) COCc1cc(=O)n2[nH]cc(-c3ccccc3)c2n1
  -15%	-4%	3%	5%	2%
(2) CCCc1cc(=O)n2[nH]cc(-c3ccc(Cl)cc3)c2n1
  15%	?	0%	21µM*	0%
(3) Cc1nnc(NC(=O)CSc2cn(CCNC(=O)c3ccccc3)c3ccccc23)s1
  -5%	1%	-8%	8%	1%
(4) COc1ccc(C(=O)NCCn2cc(SCC(=O)Nc3nnc(C)s3)c3ccccc32)cc1
  ·	-12%[1.84 µM]	·	10µM*	2%
(5) C=CC(=O)N1C/C(=C/c2ccc(Cl)cc2)C(=O)/C(=C\c2ccc(Cl)cc2)C1
  ·	23µM*	·	?	-3%
(6) C=CC[C@H](CC(=O)N(CCO)Cc1ccccc1)C(=O)N[C@@H](COC(=O)[C@@H](CC=C)CC(=O)OC(C)(C)C)Cc1c[nH]c2ccccc12
  ·	?	·	21µM*	-5%
(7) C=CC[C@@H](CC(=O)N(CCO)Cc1ccccc1)C(=O)N[C@@H](COC(=O)[C@H](CC=C)CC(=O)OC(C)(C)C)Cc1c[nH]c2ccccc12
  ·	?	·	23µM*	-5%
(8) C=CC[C@H](CC(=O)N(CCO)Cc1ccccc1)C(=O)N[C@H](COC(=O)[C@H](CC=C)CC(=O)OC(C)(C)C)Cc1c[nH]c2ccccc12
  ·	?	·	?	-2%
(9) Cc1nc(CN(C)c2ncnc3cc(-c4ccc5c(c4)OCO5)ccc23)cs1
  ·	-3%	·	-10%	·
(10) COc1cc(OC)c(-c2nn3c(-c4cc(C)[nH]n4)nnc3s2)cc1OC
  ·	0%	·	?	·
(11) Cc1ccc(NC(=O)c2cccc(NC(=O)N3CCSc4ncccc43)c2)cc1Cl
  14%	-3%	·	17%	1%
(12) COc1ccc(/C=C/c2nnc(NC(=O)COc3ccc(Cl)cc3)s2)cc1
  ·	3%	·	-3%	·
(13) Cc1[nH]n2c(=O)cc(-c3ccc(Cl)cc3)nc2c1-c1ccccc1
  ?	-17%	·	7.3µM*	0%
(14) Cc1[nH]n2c(=O)cc(C(C)(C)C)nc2c1-c1ccccc1
  24%	-24%	2%	7.3µM*	-1%
(15) Cc1[nH]n2c(=O)cc(C(C)C)nc2c1-c1ccccc1
  15%	-12%	1%	?	0%
(16) O=c1cc(-c2ccccc2)nc2c(Cl)cc(Cl)cn12
  ·	·	·	·	4µM*
(17) CCCCc1c(C)nc2c(-c3ccc(Cl)cc3)c(C)[nH]n2c1=O
  ?	-6%	·	5.8µM*	0%
(18) COc1ccc(/C=N/NC(=O)c2ccoc2C)cc1COc1ccc(Cl)cc1
  10%	-28%	23%	13µM*	3%
(19) COc1ccc(/C=N/NC(=O)c2ccoc2C)cc1OC
  -64%	11%	-2%	13%	1%
(20) CCCc1cc(=O)[nH]c(Nc2ccc(C(=O)O)cc2)n1
  0%	0%	·	5%	-1%
(21) CCCc1cc(=O)[nH]c(Nc2ccccc2O)n1
  -2%	0%	·	0%	11µM*
(22) COc1ccc(/C=N/Nc2nnc(-c3ncc[nH]3)c3ccccc23)cc1
  -36%	-24%	-3%	-1%	3%
(23) Oc1ccc2ccccc2c1/C=N/Nc1nnc(-c2ncc[nH]2)c2ccccc12
  -3%	·	-2%	5.2µM*	-1%
(24) Cc1ccn2c(=O)cc(COc3ccc(NC(=O)COc4ccc(C)c(C)c4)cc3)nc2c1
  0%	-11%	·	·	0%
(25) CC(=O)Nc1ccc(OC2=NS(=O)(=O)c3ccccc32)cc1
  ·	-3%	·	?	·
(26) CCc1ccc2[nH]cc(S(=O)(=O)c3ccc(C(C)C)cc3)c(=O)c2c1
  5%	11%	·	10%	0%
(27) CCN1/C(=C/c2ccc3cc(C)ccc3[n+]2CC)Sc2ccc3sccc3c21
  ·	?	·	6.5µM*	-1%
(28) CC[n+]1c(C)sc2c3ccsc3ccc21
  1%	1%	18%	6%	3%
(29) CC(=O)c1c(C)[nH]c(C(=O)OCc2ccc(F)cc2Cl)c1C
  -2%	-13%	4%	13µM*	6%
(30) CC(=O)Nc1ccc(C(=O)OCc2ccc(F)cc2Cl)cc1
  -13%	6%	13µM*	-25%	0%
(31) Cc1ccc(C(=O)OCc2nnc(-c3ccccc3)o2)o1
  -10%	2%	5%	-1%	2%
(32) CC(=O)c1c(C)[nH]c(C(=O)OCc2nnc(-c3ccccc3)o2)c1C
  7%	-15%	-3%	21µM*	3%
(33) COc1ccc(C=O)cc1COc1ccc(NC(C)=O)cc1
  ·	0%	·	4%	·
(34) CC(C)C(=O)Nc1ccc2nc(SCC(=O)N3CCCC3)sc2c1
  -12%	-10%	·	-2%	5%
(35) S=c1[nH]c2cc(-c3ccccc3)ccc2o1
  -31%	-1%	16µM*	5%	-1%
(36) Cc1oc(-c2ccc3c(c2)OCCO3)cc1C(=O)O
  ?	-5%	1%	9.2µM*	-1%
(37) Cc1oc(-c2ccc3c(c2)OCCO3)cc1C(=O)NCC(=O)O
  10%	2%	?	?	-1%
(38) CCCCn1c(SCc2ccc(C(=O)OC)o2)nc2cc(S(N)(=O)=O)ccc21
  9%	-9%	-1%	16µM*	3%
(39) CCCCn1c(SCC(=O)c2cc(OC)ccc2OC)nc2cc(S(N)(=O)=O)ccc21
  -12%	4%	4%	21%	-1%
(40) COc1ccccc1CNC(=O)CCC1N=C2c3ccccc3N=C(SCc3ccc(C)cc3)N2C1=O (stereo not drawn)
  ?	-20%	·	·	3%

Next structures.
Letter code: A = miR-21 reporter; B = A549 viability; C = Mito fusion act; D = Nrf2 inh; E = Nrf2 ARE act
41) CC(=O)O[C@]1(C(C)=O)CC[C@H]2[C@@H]3C=C(Cl)C4=CC(=O)[C@@H]5C[C@@H]5[C@]4(C)[C@H]3CC[C@@]21C
  A: ·; B: 1%; C: 21µM*; D: ?; E: 0%
42) O=C(/C=C/c1ccc(Br)o1)NC(c1ccccc1)c1ccccc1
  A: 4%; B: -9%; C: ?; D: 26µM*; E: 5%
43) C=CCOC(=O)C1=C(C)NC(SCC)=C(C#N)C1c1ccc(Cl)cc1 (stereo not drawn)
  A: 18%; B: ?; C: -8%; D: 21µM*; E: 0%
44) C=CCOC(=O)C1=C(C)NC(SCC(=O)Nc2ccc(C)c(Cl)c2)=C(C#N)C1c1ccco1 (stereo not drawn)
  A: 9%; B: -23%; C: 3%; D: 6.5µM*; E: 3%
45) COCCOC(=O)C1=C(C)NC(SCC(=O)NC(C)(C)C)=C(C#N)C1c1ccco1 (stereo not drawn)
  A: 7%; B: -4%; C: 1%; D: 5%; E: 16%
46) O=C(NCc1ccc(F)cc1)n1cc(P(=S)(c2ccccc2)c2ccccc2)c2ccccc21
  A: ·; B: -1%; C: ·; D: -5%; E: ·
47) Cc1cccc(C)c1N=C1C(=O)Nc2ccccc21
  A: -2%; B: -17%; C: -2%; D: 18µM*; E: -1%
48) Cc1cc(C)c(N=C2C(=O)Nc3ccccc32)c(C)c1
  A: -1%; B: 2%; C: 2%; D: -17%; E: 6%
49) COc1ccc(C(=O)Nc2ccccc2C(=O)N/N=C/c2ccccn2)cc1OC
  A: -2%; B: -13%; C: 1%; D: 9.2µM*; E: 7%
50) COC(=O)C1=C(C)NC(=O)/C1=C\c1cc(C)n(-c2cc(C)cc(C)c2)c1C
  A: -1%; B: ?; C: 11%; D: 23µM*; E: 2%

Entries 1 through 6 from above:
Letter code: A = miR-21 reporter; B = A549 viability; C = Mito fusion act; D = Nrf2 inh; E = Nrf2 ARE act
1) COCc1cc(=O)n2[nH]cc(-c3ccccc3)c2n1
  A: -15%; B: -4%; C: 3%; D: 5%; E: 2%
2) CCCc1cc(=O)n2[nH]cc(-c3ccc(Cl)cc3)c2n1
  A: 15%; B: ?; C: 0%; D: 21µM*; E: 0%
3) Cc1nnc(NC(=O)CSc2cn(CCNC(=O)c3ccccc3)c3ccccc23)s1
  A: -5%; B: 1%; C: -8%; D: 8%; E: 1%
4) COc1ccc(C(=O)NCCn2cc(SCC(=O)Nc3nnc(C)s3)c3ccccc32)cc1
  A: ·; B: -12%[1.84 µM]; C: ·; D: 10µM*; E: 2%
5) C=CC(=O)N1C/C(=C/c2ccc(Cl)cc2)C(=O)/C(=C\c2ccc(Cl)cc2)C1
  A: ·; B: 23µM*; C: ·; D: ?; E: -3%
6) C=CC[C@H](CC(=O)N(CCO)Cc1ccccc1)C(=O)N[C@@H](COC(=O)[C@@H](CC=C)CC(=O)OC(C)(C)C)Cc1c[nH]c2ccccc12
  A: ·; B: ?; C: ·; D: 21µM*; E: -5%

Assay outcomes deposited in PubChem BioAssay by National Center for Advancing Translational Sciences (NCATS).
